The series is described as follows: Half life in phosphate buffer at pH 7.

Some results are limits rather than exact numbers.

In the case of `O=C1Nc2cccc3c4c(cc(c23)O1)N(C(=O)c1cc2cc(NC(=O)c3cc5ccccc5[nH]3)ccc2[nH]1)C[C@H]4CCl`, the t1/2 is greater than 28 days.
